Target: Carbonic anhydrase 1 (Homo sapiens, UniProt P00915)
Assay: ASSAY_NAME: ChEMBL_158304 (CHEMBL763189) DESCRIPTION: Inhibition of human carbonic anhydrase 2 preincubated for 15 mins by stopped-flow CO2 hydrase assay
Settings: pH 7.5

Sequences of proteins named here, by UniProt entry; tags and fusion partners are left off. Residues count along the entry.
UniProt P00915, 2-261 limits assumed: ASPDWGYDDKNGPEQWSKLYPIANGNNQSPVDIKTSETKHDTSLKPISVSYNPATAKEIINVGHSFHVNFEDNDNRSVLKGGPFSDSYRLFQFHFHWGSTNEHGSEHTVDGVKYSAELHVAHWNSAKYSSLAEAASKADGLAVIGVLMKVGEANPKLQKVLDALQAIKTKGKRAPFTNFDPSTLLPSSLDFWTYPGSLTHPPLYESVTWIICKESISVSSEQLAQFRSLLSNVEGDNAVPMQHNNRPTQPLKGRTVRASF

[O]=[V]([OH])([OH])[O][V](=[O])([OH])[OH]
Ki: 540 µM

Reference: BindingDB's records for 27283786 (2016)
